The subject of assay [1] is N87 (EGFR and ErbB2 overexpression) cells. In words: Cell proliferation assay (MTS), N87. The format is cell-based. The note with it: 72 h incubation. On the procedure:
(§1) Cell Proliferation Asssay
(§2) Materials and Preparation of Reagents
(§3) MTS testing kit was purchased from Promega. […] Dimethyl sulfoxide (DMSO) was purchased from Sigma.
(§4) Inhibition Activity of Cell Proliferation
(§5) In this assay, inhibition of EGFR and ErbB2 was detected by the inhibition of BT474 and N87 cells proliferation. BT474 cells were cultured in culture flasks to 40-80% confluence in DMEM plus 10% fetal bovine serum. […] Cells were collected and plated onto 96-well plates at desired cell density (BT474: 1000 cells/well; N87: 1000 cells/well). BT474 plates were incubated 48 h at 37° C., with 5% CO2 to adhere. N87 plates were incubated overnight at 37° C., with 5% CO2 to adhere. […] Place BT474 plates at 37° C., with 5% CO2 for 7d. Place N87 plates at 37° C., with 5% CO2 for 72 h. After removing the medium, 20 μl MTS/100 μl medium mixture solution were added to each well and incubate the plates for exactly 2 hours. Measure absorbance at 490 nm and 650 nm (reference wavelength). IC50 was calculated using GraphPad Prism 5.0.

Assay [2] deals with BT474 (EGFR overexpression) cells. The assay can be described thus: Cell proliferation assay (MTS), BT474. The conditions noted are these: Homo sapiens, BT-474, 168 h, 7 d incubation. The format is cell-based. The procedure:
as §1, §2, §3, §4, §5

The term IC50 denotes the point on the concentration scale where inhibition reaches its midpoint. With `CCOc1cc2ncnc(Nc3ccc(F)c(Cl)c3)c2cc1NC(=O)/C=C/CN1CC[C@@H]1COC` [Example 4, (R,E)-N-(4-(3-chloro-4-fluorophenylamino)-7-ethoxyquinazolin-6-yl)-4-(2-(methoxymethyl)azetidin-1-yl)but-2-enamide], the IC50 in assay [1] amounted to 1.6 nM.
In the case of `CCOc1cc2ncnc(Nc3ccc(F)c(Cl)c3)c2cc1NC(=O)/C=C/CN1CC[C@H]1COC` [Example 5, (S,E)-N-(4-(3-chloro-4-fluorophenylamino)-7-ethoxyquinazolin-6-yl)-4-(2-(methoxymethyl)azetidin-1-yl)but-2-enamide], the IC50 was 7.8 nM in assay [2] and 8.1 nM in assay [1].
Take `COCCOc1cc2ncnc(Nc3ccc(F)c(Cl)c3)c2cc1NC(=O)/C=C/CN1CC[C@@H]1COC` [Example 6, (R,E)-N-(4-(3-chloro-4-fluorophenylamino)-7-(2-methoxyethoxy)quinazolin-6-yl)-4-(2-(methoxymethyl)azetidin-1-yl)but-2-enamide]: the IC50 in assay [1] was 1.9 nM.
For the compound `COCCOc1cc2ncnc(Nc3ccc(F)c(Cl)c3)c2cc1NC(=O)/C=C/CN1CC[C@H]1COC` [Example 7, (S,E)-N-(4-(3-chloro-4-fluorophenylamino)-7-(2-methoxyethoxy)quinazolin-6-yl)-4-(2-(methoxymethyl)azetidin-1-yl)but-2-enamide], half-maximal inhibition in assay [1] (IC50) required 4.6 nM.
The same measure, in the same setting: for `COC[C@H]1CCN1C/C=C/C(=O)Nc1cc2c(Nc3ccc(F)c(Cl)c3)ncnc2cc1OCC1CC1` [Example 9, (R,E)-N-(4-(3-chloro-4-fluorophenylamino)-7-(cyclopropylmethoxy)quinazolin-6-yl)-4-(2-(methoxymethyl)azetidin-1-yl)but-2-enamide] the value was 15.5 nM; for `COC[C@@H]1CCN1C/C=C/C(=O)Nc1cc2c(Nc3ccc(F)c(Cl)c3)ncnc2cc1OCC1CC1` [Example 10, (S,E)-N-(4-(3-chloro-4-fluorophenylamino)-7-(cyclopropylmethoxy)quinazolin-6-yl)-4-(2-(methoxymethyl)azetidin-1-yl)but-2-enamide], 32.8 nM; for `COC[C@H]1CCN1C/C=C/C(=O)Nc1cc2c(Nc3ccc(F)c(Cl)c3)ncnc2cc1OC[C@H]1COCCO1` [Example 14, (E)-N-(7-(((R)-1,4-dioxan-2-yl)methoxy)-4-(3-chloro-4-fluorophenylamino)quinazolin-6-yl)-4-((R)-2-(methoxymethyl)azetidin-1-yl)but-2-enamide], 1.2 nM.
With `COC[C@@H]1CCN1C/C=C/C(=O)Nc1cc2c(Nc3ccc(F)c(Cl)c3)ncnc2cc1OC[C@H]1COCCO1` [Example 15, (E)-N-(7-(((R)-1,4-dioxan-2-yl)methoxy)-4-(3-chloro-4-fluorophenylamino)quinazolin-6-yl)-4-((S)-2-(methoxymethyl)azetidin-1-yl)but-2-enamide], in assay [1], the half-maximal inhibitory concentration (IC50) is 11.2 nM.
On to `COCC1CCN1C/C=C/C(=O)Nc1cc2c(Nc3ccc(F)c(Cl)c3)ncnc2cc1OC[C@@H]1COCCO1` (stereo partly drawn) [Example 17, (E)-N-(7-(((S)-1,4-dioxan-2-yl)methoxy)-4-(3-chloro-4-fluorophenylamino)quinazolin-6-yl)-4-(2-(methoxymethyl)azetidin-1-yl)but-2-enamide], for which the IC50 amounted to 4.8 nM in assay [2] and 5 nM in assay [1].
As for `COC[C@H]1CCN1C/C=C/C(=O)Nc1cc2c(Nc3ccc(F)c(Cl)c3)ncnc2cc1OC[C@H]1[C@@H]2COC[C@@H]21` [Example 19, (E)-N-(7-((1R,5S,6r)-3-oxabicyclo[3.1.0]hexan-6-ylmethoxy)-4-(3-chloro-4-fluorophenylamino)quinazolin-6-yl)-4-((R)-2-(methoxymethyl)azetidin-1-yl)but-2-enamide], the IC50 in assay [2] came to 2.9 nM; in assay [1], 2.8 nM.
In assay [1], `COC[C@@H]1CCN1C/C=C/C(=O)Nc1cc2c(Nc3ccc(F)c(Cl)c3)ncnc2cc1OC[C@H]1[C@@H]2COC[C@@H]21` [Example 20, (E)-N-(7-((1R,5S,6r)-3-oxabicyclo[3.1.0]hexan-6-ylmethoxy)-4-(3-chloro-4-fluorophenylamino)quinazolin-6-yl)-4-((S)-2-(methoxymethyl)azetidin-1-yl)but-2-enamide] registered an IC50 of 15.6 nM.

These data come from patent US9714235B2, “Quinazoline derivatives, compositions thereof, and use as pharmaceuticals” (Shanghai Fochon Pharmaceutical Co., Ltd., priority 2013, dated 2017).
